# Laboratory results as given in patent publication US10434077B2, “Glycolic acid and/or D-lactic acid for the treatment of neurodegenerative diseases” (MAX-PLANCK-GESELLSCHAFT ZUR FOERDERUNG DER WISSENSCHAFTEN …, priority 2014, dated 2019).
# Tested on: primary dopaminergic neurons from wild-type E14.5 embryos treated with PQ2+
# Conditions: 12.5 μM PQ2+ for 72 hours, 10 mM supplement
structure (smiles),measurement,value
"O=C(O)CO [GA, 2-hydroxyethanoic acid]",rescue of the toxic effect of paraquat on dopaminergic neurons,significantly rescue the toxic effect of paraquat
